Laboratory results taken from ChEMBL document CHEMBL1131557, “Trans-4-methyl-3-imidazoyl pyrrolidine as a potent, highly selective histamine H3 receptor agonist in vivo” (Bioorg Med Chem Lett, 1998).

Biological target: Histamine H1 receptor (Cavia porcellus) (UniProt P31389)
Assay: Ratio of ED50 of H1 receptor to that of ED50 of H3 receptor was determined

Ratio: > 550
SMILES: C[C@H]1NCC[C@@H]1c1c[nH]cn1
